## CycPeptMPDB entries from one study

Collected by the curators of CycPeptMPDB (Li et al. 2023) from Townsend et al. 2020, doi:10.26434/chemrxiv.13335941.v1.

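Lipid, pH, incubation time, direction and concentration are not recorded in the data file. Other peptides of the study may be missing here. Peptides that the database sets to -10, its floor, are left out.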

PAMPA measures passive passage through an artificial lipid membrane.
Values are log10 P with P in cm/s, so -5 is more permeable than -7.

CC(C)C[C@@H]1C(=O)N[C@H](CC(C)C)C(=O)N2CCC[C@@H]2C(=O)N(C)[C@H](CC(C)C)C(=O)N[C@@H](Cc2ccccc2)C(=O)N2CCC[C@H]2C(=O)N[C@@H](C)C(=O)N1C is reported with PAMPA -5.69 (log10 cm/s).
CC(C)C[C@H]1C(=O)N[C@@H](Cc2ccccc2)CC(=O)N2CCC[C@@H]2C(=O)N(C)[C@@H](CC(C)C)C(=O)N[C@@H](Cc2ccccc2)C(=O)N2CCC[C@H]2C(=O)N(C)[C@H](C)C(=O)N1C is reported with PAMPA -5.31 (log10 cm/s).
CC(C)C[C@H]1NC(=O)[C@@H](C)N(C)C(=O)[C@H](Cc2ccccc2)NC(=O)[C@H](CC(C)C)N(C)C(=O)[C@@H]2CCCN2C(=O)C[C@H](Cc2ccccc2)NC1=O is reported with PAMPA -5.51 (log10 cm/s).
CC(C)C[C@H]1NC(=O)[C@@H]2CCCN2C(=O)CN(Cc2ccccc2)C(=O)[C@H](CC(C)C)N(C)C(=O)[C@H](C)NC(=O)[C@H](Cc2ccccc2)NC1=O is reported with PAMPA -6.07 (log10 cm/s).
CC(C)C[C@@H]1C(=O)N(C)[C@@H](CC(C)C)C(=O)N2CCC[C@H]2C(=O)N[C@H](CC(C)C)C(=O)N[C@@H](Cc2ccccc2)C(=O)N[C@@H](C)C(=O)N1C is reported with PAMPA -5.61 (log10 cm/s).
CC(C)C[C@@H]1C(=O)N[C@H](CC(C)C)C(=O)N2CCC[C@H]2C(=O)N(Cc2ccccc2)CC(=O)N[C@@H](Cc2ccccc2)C(=O)N2CCC[C@H]2C(=O)N(C)[C@@H](C)C(=O)N1C is reported with PAMPA -5.17 (log10 cm/s).
CC(C)C[C@@H]1NC(=O)C[C@H](Cc2ccccc2)NC(=O)[C@H]2CCCN2C(=O)[C@H](Cc2ccccc2)NC(=O)[C@@H](CC(C)C)NC(=O)[C@H]2CCCN2C(=O)CN(Cc2ccccc2)C1=O is reported with PAMPA -5.75 (log10 cm/s).
CC(C)C[C@@H]1C(=O)N2CCC[C@@H]2C(=O)N(C)[C@@H](CC(C)C)C(=O)N[C@@H](Cc2ccccc2)C(=O)N2CCC[C@@H]2C(=O)N(C)[C@@H](C)C(=O)N(C)[C@H](CC(C)C)C(=O)N1C is reported with PAMPA -4.87 (log10 cm/s).
CC(C)C[C@@H]1NC(=O)[C@H](CC(C)C)N(C)C(=O)C[C@H](Cc2ccccc2)NC(=O)[C@H](Cc2ccccc2)NC(=O)CN(Cc2ccccc2)C(=O)[C@@H]2CCCN2C1=O is reported with PAMPA -5.39 (log10 cm/s).
CCCN1CC(=O)N[C@@H](CC(C)C)C(=O)N(C)[C@@H](CC(C)C)C(=O)N2CCC[C@@H]2C(=O)N(C)[C@@H](CC(C)C)C(=O)N[C@@H](Cc2ccccc2)C(=O)N2CCC[C@H]2C1=O is reported with PAMPA -5.09 (log10 cm/s).
CC(C)C[C@@H]1NC(=O)C[C@H](Cc2ccccc2)NC(=O)[C@H]2CCCN2C(=O)[C@H](Cc2ccccc2)NC(=O)CN(Cc2ccccc2)C(=O)[C@H]2CCCN2C(=O)[C@H](CC(C)C)N(C)C1=O is reported with PAMPA -5.92 (log10 cm/s).
CC(C)C[C@@H]1C(=O)N[C@@H](Cc2ccccc2)C(=O)N2CCC[C@@H]2C(=O)N(C)[C@H](C)C(=O)N[C@H](CC(C)C)C(=O)N(Cc2ccccc2)CC(=O)N2CCC[C@@H]2C(=O)N1C is reported with PAMPA -6.01 (log10 cm/s).
CC(C)C[C@@H]1NC(=O)C[C@H](Cc2ccccc2)NC(=O)[C@H]2CCCN2C(=O)[C@H](Cc2ccccc2)NC(=O)[C@@H](CC(C)C)N(C)C(=O)[C@H]2CCCN2C(=O)[C@H](CC(C)C)N(C)C1=O is reported with PAMPA -5.78 (log10 cm/s).
CC(C)C[C@@H]1C(=O)N2CCC[C@H]2C(=O)N(Cc2ccccc2)CC(=O)N[C@@H](Cc2ccccc2)C(=O)N2CCC[C@H]2C(=O)N(C)[C@H](C)C(=O)N(C)[C@@H](CC(C)C)C(=O)N1C is reported with PAMPA -5.68 (log10 cm/s).
CC(C)C[C@@H]1NC(=O)[C@@H](C)NC(=O)[C@@H]2CCCN2C(=O)[C@H](Cc2ccccc2)NC(=O)CN(Cc2ccccc2)C(=O)[C@@H]2CCCN2C(=O)[C@H](CC(C)C)N(C)C1=O is reported with PAMPA -6.06 (log10 cm/s).
CC(C)C[C@@H]1NC(=O)[C@H](CC(C)C)N(C)C(=O)C[C@H](Cc2ccccc2)NC(=O)[C@@H]2CCCN2C(=O)[C@H](Cc2ccccc2)NC(=O)[C@@H](CC(C)C)N(C)C(=O)[C@@H]2CCCN2C1=O is reported with PAMPA -5.70 (log10 cm/s).

Again, the 2 entries with the lowest PAMPA:

compound	PAMPA (log10 cm/s)
CC(C)C[C@H]1NC(=O)[C@@H]2CCCN2C(=O)CN(Cc2ccccc2)C(=O)[C@H](CC(C)C)N(C)C(=O)[C@H](C)NC(=O)[C@H](Cc2ccccc2)NC1=O	-6.07
CC(C)C[C@@H]1NC(=O)[C@@H](C)NC(=O)[C@@H]2CCCN2C(=O)[C@H](Cc2ccccc2)NC(=O)CN(Cc2ccccc2)C(=O)[C@@H]2CCCN2C(=O)[C@H](CC(C)C)N(C)C1=O	-6.06